Data as given in PMC7265341 (2020).
Where two headings read alike, the source gives them in different places.

Protein sequences, listed by entry. Tags and fused reporters are not part of them. Lines headed by an entry give the natural chain unless they say otherwise; changes in a name come on top. Chains listed by the source or under a name are the forms on record and can include a tag or linker. Residues count along the entry.
UniProt O94921: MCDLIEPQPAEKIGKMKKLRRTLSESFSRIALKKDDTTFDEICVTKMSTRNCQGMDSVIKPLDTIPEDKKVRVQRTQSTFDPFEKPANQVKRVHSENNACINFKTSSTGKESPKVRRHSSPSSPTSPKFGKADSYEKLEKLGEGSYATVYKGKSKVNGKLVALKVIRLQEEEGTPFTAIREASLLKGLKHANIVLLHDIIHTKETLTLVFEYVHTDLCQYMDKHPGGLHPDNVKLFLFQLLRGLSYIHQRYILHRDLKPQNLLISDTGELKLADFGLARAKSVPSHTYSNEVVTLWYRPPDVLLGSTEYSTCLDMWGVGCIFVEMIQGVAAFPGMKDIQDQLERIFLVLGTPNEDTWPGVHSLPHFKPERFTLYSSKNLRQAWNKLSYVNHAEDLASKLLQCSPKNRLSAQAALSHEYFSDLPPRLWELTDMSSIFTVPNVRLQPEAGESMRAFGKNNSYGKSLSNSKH
UniProt Q96Q40: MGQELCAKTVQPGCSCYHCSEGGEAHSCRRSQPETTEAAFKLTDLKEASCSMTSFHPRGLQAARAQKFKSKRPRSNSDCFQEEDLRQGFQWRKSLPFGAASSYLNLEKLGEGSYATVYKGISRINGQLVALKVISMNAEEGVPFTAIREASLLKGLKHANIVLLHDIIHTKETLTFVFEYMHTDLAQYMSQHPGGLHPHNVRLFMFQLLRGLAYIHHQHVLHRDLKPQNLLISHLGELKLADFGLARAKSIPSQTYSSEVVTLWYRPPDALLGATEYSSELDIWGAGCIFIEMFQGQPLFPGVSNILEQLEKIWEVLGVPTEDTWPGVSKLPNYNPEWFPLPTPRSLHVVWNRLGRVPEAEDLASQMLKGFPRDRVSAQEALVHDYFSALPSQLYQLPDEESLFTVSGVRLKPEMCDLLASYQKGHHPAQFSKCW
UniProt Q00537: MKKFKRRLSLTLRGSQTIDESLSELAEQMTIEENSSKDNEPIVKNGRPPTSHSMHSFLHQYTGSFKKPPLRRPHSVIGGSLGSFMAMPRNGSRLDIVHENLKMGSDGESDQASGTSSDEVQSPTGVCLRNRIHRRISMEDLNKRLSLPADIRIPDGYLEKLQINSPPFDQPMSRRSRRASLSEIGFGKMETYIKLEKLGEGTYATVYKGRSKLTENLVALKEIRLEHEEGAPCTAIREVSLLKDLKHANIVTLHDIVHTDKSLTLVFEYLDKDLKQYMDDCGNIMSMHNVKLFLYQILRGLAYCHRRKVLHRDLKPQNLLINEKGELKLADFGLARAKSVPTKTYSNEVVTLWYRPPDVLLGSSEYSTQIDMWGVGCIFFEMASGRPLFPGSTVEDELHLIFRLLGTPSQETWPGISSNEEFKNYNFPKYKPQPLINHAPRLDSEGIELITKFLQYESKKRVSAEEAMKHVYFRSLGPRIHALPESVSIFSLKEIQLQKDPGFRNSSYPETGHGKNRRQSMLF
UniProt Q07002: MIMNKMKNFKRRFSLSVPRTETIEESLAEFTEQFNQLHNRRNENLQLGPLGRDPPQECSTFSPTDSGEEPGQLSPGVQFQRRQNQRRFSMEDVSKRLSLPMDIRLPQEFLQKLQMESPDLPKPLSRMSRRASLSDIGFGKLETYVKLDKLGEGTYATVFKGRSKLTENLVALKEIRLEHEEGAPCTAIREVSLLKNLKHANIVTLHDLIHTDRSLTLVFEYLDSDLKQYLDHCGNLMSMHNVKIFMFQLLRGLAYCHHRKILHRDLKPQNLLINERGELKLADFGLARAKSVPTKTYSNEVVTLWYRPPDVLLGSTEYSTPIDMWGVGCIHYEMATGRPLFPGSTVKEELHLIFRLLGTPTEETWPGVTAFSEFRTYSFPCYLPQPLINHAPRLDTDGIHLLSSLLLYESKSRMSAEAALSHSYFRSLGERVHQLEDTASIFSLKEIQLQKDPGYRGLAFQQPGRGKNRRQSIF
UniProt P06493, whole entry: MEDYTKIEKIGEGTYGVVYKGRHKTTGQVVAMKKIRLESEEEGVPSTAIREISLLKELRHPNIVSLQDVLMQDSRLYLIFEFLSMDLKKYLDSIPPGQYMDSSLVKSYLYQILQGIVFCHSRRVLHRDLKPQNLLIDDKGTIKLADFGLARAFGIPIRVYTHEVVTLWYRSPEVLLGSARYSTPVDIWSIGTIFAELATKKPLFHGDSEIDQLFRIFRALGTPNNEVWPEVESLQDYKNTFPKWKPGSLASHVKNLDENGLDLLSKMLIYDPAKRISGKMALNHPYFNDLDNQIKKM
UniProt P50750, whole entry: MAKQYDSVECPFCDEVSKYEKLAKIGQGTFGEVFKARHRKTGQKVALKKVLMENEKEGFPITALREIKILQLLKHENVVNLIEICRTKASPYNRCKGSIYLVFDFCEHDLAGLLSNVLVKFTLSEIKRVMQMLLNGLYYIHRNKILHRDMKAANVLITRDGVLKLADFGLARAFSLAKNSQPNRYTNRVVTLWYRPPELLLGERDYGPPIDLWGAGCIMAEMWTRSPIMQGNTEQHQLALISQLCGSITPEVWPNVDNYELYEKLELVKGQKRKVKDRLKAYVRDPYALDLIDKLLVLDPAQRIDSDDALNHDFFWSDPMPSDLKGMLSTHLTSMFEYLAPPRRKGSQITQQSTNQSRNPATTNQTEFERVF
UniProt Q9NYV4, 1-1481 isoform Q9NYV4-2: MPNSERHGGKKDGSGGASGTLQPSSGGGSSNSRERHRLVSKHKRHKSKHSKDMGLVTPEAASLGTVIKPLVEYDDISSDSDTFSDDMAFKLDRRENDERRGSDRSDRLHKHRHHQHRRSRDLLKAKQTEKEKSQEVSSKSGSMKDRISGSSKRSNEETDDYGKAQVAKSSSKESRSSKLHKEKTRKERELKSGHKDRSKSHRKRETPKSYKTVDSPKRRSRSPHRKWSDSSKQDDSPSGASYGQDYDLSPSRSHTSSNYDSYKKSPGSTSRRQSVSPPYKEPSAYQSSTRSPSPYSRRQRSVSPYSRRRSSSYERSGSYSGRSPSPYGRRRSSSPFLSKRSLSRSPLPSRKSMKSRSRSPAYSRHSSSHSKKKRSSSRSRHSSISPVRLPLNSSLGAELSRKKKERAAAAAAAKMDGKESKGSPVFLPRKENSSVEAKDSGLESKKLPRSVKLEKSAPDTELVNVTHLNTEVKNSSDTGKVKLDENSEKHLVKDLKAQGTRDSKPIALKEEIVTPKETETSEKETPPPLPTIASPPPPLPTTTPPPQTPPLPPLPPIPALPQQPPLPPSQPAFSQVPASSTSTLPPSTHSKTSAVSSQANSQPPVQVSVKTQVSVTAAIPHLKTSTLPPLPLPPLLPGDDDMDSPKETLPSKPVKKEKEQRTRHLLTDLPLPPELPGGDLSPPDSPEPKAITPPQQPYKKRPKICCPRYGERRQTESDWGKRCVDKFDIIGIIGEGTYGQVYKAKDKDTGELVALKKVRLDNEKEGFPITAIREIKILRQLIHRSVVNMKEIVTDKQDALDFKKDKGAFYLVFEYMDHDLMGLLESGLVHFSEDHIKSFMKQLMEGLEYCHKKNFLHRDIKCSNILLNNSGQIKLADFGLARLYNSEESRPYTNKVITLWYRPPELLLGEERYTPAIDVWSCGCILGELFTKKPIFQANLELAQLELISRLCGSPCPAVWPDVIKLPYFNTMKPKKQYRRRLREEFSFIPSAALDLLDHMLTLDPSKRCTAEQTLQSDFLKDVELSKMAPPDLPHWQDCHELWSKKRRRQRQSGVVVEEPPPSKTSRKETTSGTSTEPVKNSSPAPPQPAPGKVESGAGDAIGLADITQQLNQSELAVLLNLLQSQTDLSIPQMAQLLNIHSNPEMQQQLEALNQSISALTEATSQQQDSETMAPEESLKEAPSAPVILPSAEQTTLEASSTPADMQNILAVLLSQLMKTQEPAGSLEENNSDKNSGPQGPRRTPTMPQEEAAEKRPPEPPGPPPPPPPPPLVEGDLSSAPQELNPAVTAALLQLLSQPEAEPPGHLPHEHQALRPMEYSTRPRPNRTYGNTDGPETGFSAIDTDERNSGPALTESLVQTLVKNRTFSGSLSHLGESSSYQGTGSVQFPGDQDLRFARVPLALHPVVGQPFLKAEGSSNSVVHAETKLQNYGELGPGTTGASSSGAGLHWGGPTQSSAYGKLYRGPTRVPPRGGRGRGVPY
UniProt Q14004, other isoform, or with tags, fused parts or gaps: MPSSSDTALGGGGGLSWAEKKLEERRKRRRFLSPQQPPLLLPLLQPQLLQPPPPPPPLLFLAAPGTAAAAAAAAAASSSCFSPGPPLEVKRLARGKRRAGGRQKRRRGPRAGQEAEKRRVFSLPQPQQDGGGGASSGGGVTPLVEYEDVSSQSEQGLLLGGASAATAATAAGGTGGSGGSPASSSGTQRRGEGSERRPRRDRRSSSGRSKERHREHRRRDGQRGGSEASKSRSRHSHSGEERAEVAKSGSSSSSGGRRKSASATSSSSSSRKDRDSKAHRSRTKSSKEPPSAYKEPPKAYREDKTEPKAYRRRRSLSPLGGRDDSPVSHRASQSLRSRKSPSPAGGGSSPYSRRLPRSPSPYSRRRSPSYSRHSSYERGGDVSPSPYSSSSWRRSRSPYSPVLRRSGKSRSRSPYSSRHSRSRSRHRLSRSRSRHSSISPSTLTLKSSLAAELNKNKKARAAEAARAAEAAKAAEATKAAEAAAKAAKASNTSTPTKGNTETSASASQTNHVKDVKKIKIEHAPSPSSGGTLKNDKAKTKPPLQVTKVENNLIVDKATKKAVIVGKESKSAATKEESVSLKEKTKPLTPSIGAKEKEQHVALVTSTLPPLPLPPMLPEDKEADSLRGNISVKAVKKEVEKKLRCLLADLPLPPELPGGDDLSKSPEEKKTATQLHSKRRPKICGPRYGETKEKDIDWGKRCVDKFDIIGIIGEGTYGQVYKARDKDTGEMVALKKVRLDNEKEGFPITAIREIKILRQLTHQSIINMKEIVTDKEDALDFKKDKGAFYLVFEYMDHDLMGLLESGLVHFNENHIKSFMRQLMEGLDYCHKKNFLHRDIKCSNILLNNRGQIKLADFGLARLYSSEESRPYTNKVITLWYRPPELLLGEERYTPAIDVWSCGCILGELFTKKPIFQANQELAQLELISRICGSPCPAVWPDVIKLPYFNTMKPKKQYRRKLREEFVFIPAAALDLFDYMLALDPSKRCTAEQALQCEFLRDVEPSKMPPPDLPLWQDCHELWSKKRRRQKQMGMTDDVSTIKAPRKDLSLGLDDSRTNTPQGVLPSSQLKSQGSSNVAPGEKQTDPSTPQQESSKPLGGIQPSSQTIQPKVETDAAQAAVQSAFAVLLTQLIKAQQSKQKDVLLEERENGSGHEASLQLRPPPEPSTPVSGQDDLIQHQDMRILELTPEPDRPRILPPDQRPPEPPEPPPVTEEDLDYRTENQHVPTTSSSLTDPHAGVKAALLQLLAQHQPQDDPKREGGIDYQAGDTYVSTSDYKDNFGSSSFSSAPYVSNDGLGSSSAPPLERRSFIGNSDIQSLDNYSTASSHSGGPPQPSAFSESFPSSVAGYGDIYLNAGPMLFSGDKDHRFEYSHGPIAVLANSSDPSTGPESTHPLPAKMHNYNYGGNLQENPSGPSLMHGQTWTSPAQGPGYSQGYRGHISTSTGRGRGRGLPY

Key:
CDK14/Cyclin Y = CDK14/Cyclin Y (Homo sapiens, UniProt O94921); test: NanoBRET live-cell target engagement, CDK14-NanoLuc/Cyclin Y in HEK-293; conditions: 10µM
CDK15/Cyclin Y = CDK15/Cyclin Y (Homo sapiens, UniProt Q96Q40); test: NanoBRET live-cell target engagement, NanoLuc-CDK15/Cyclin Y in HEK-293; conditions: 10µM
CDK17/Cyclin Y = CDK17/Cyclin Y (Homo sapiens, UniProt Q00537); test: NanoBRET live-cell target engagement, CDK17-NanoLuc/Cyclin Y in HEK-293; conditions: 10µM
CDK18/Cyclin Y = CDK18/Cyclin Y (Homo sapiens, UniProt Q07002); test: NanoBRET live-cell target engagement, CDK18-NanoLuc/Cyclin Y in HEK-293; conditions: 10µM
CDK1/Cyclin E1 = CDK1/Cyclin E1 (Homo sapiens, UniProt P06493); test: NanoBRET live-cell target engagement, CDK1-NanoLuc/Cyclin E1 in HEK-293
CDK9/Cyclin K = CDK9/Cyclin K (Homo sapiens, UniProt P50750); test: NanoBRET live-cell target engagement, NanoLuc-CDK9/Cyclin K in HEK-293; assay type: binding; conditions: read-out: Inhibition at 10µM (%) Replicate 2
CDK12/Cyclin K = CDK12/Cyclin K (Homo sapiens, UniProt Q9NYV4); test: NanoBRET live-cell target engagement, CDK12-NanoLuc/Cyclin K in HEK-293; conditions: read-out: CDK12 occupancy at 10 µM
CDK13/Cyclin K = CDK13/Cyclin K (Homo sapiens, UniProt Q14004); test: NanoBRET live-cell target engagement, CDK13-NanoLuc/Cyclin K in HEK-293; conditions: read-out: CDK13 occupancy at 10 µM

## CCN1CCN(Cc2ccc(NC(=O)Nc3ccc(Oc4cc(NC)ncn4)cc3)cc2C(F)(F)F)CC1 [AST-487]
CDK14/Cyclin Y; read-out: Inhibition at 10µM (%) Average, CDK14/Y, average of replicates
  inhibition at 10 µM: 75.7%
CDK14/Cyclin Y; read-out: Inhibition at 10µM (%) Replicate 1, CDK14/Y
  inhibition at 10 µM: 65.9%
CDK14/Cyclin Y; read-out: Inhibition at 10µM (%) Replicate 2, CDK14/Y
  inhibition at 10 µM: 85.6%
CDK15/Cyclin Y; read-out: Inhibition at 10µM (%) Average, CDK15/Y, average of replicates
  inhibition at 10 µM: 75.3%
CDK15/Cyclin Y; read-out: Inhibition at 10µM (%) Replicate 1, CDK15/Y
  inhibition at 10 µM: 64.7%
CDK15/Cyclin Y; read-out: Inhibition at 10µM (%) Replicate 2, CDK15/Y
  inhibition at 10 µM: 85.8%
CDK17/Cyclin Y; read-out: Inhibition at 10µM (%) Average, CDK17/Y, average of replicates
  inhibition at 10 µM: 90.8%
CDK17/Cyclin Y; read-out: Inhibition at 10µM (%) Replicate 1, CDK17/Y
  inhibition at 10 µM: 94.8%
CDK17/Cyclin Y; read-out: Inhibition at 10µM (%) Replicate 2, CDK17/Y
  inhibition at 10 µM: 86.8%
CDK18/Cyclin Y; read-out: Inhibition at 10µM (%) Average, CDK18/Y, average of replicates
  inhibition at 10 µM: 93.6%
CDK18/Cyclin Y; read-out: Inhibition at 10µM (%) Replicate 1, CDK18/Y
  inhibition at 10 µM: 95.4%
CDK18/Cyclin Y; read-out: Inhibition at 10µM (%) Replicate 2, CDK18/Y
  inhibition at 10 µM: 91.8%

## O=C(NC1CCNCC1)c1[nH]ncc1NC(=O)c1c(Cl)cccc1Cl [AT7519]
CDK1/Cyclin E1; read-out: Inhibition at 10µM (%) Average
  inhibition at 10 µM: 79.5%
CDK1/Cyclin E1; read-out: Inhibition at 10µM (%) Replicate 1
  inhibition at 10 µM: 77.2%
CDK1/Cyclin E1; read-out: Inhibition at 10µM (%) Replicate 2
  inhibition at 10 µM: 81.9%

## Cc1ncc(-c2ccnc(Nc3ccc(S(C)(=O)=O)cc3)n2)n1C(C)C [AZD5438]
CDK9/Cyclin K
  inhibition at 10 µM: 95.9%

## CCc1cnn2c(NCc3ccc[n+]([O-])c3)cc(N3CCCC[C@H]3CCO)nc12 [Dinaciclib]
CDK12/Cyclin K
  receptor occupancy at 10 µM: ~50%
CDK13/Cyclin K
  receptor occupancy at 10 µM: ~50%
